The target in the assay is 20S catalytic subunit of the proteasome (multicatalytic proteinase complex) (Bos taurus, UniProt Q32KL2). Briefly: 20S proteasome chymotryptic activity, fluorogenic peptide cleavage. To be noted: 50 μM succinyl-leu-leu-val-tyr-7-amino-4-methyl coumarin, 15 minutes at 37° C, pH7.5. As to the method:
Compounds of this invention prepared according to the method of Example 1 were tested as follows. The 20S catalytic subunit of the proteasome (also known as the multicatalytic proteinase complex) was purified to homogeneity from bovine brain according to published methods (Wilk S. and Orlowski, M, 40 842 J. Neurochem (1983)). The chymotryptic activity of the complex is measured by the increase in fluorescence following cleavage of the substrate peptide succinyl-leucine-leucine-valine-tyrosine-7-amino-4-methyl coumarin. The standard in vitro assay consists of 2 μg 20S proteasome, 0.1-100 μg/ml proteasome inhibitor in 200 μl 50 mM HEPES, containing 0.1% sodium dodecyl sulphate, pH7.5. The proteolytic reaction is initiated by the addition of 50 μM fluorogenic peptide substrate and allowed to progress for 15 minutes at 37° C. The reaction is terminated by the addition of 100 μl of 100 mM acetate buffer, pH4.0. The rate of proteolysis is directly proportional to the amount of liberated aminomethylcoumarin which is measured by fluorescent spectroscopy (EX 370 nm, EM 430 nm).

Usually IC50 stands for the concentration that gives 50% inhibition. Compound `COc1ccc2c(c1)C(CC(=O)N[C@H](CC(C)C)C(=O)N[C@H](Cc1ccc(O)cc1)C(N)=O)CC2=O` (stereo partly drawn) came in with an IC50 of over 10 µg/mL.
To `COc1ccc2c(c1)C(CC(=O)N[C@H](CC(C)C)C(=O)N1Cc3ccccc3C[C@@H]1C(N)=O)CC2=O` (stereo partly drawn) belongs over 10 µg/mL; to `COc1ccc2c(c1)C(CC(=O)N[C@H](CC1CCCCC1)C(=O)N[C@H](CC(C)C)C(N)=O)CC2=O` (stereo partly drawn), over 10 µg/mL.
